# This is a selection; strong and weak results do not stand in their true shares. Results filed as inconclusive are left out. A call without a number means that no potency is given here. Active and inactive are the calls of the source. Calls come from the whole dose curve; as a rule, active = well fitted inhibition curve with a large enough effect (not every such curve was filed as active); inconclusive = small, poorly fitted or top-dose-only effect, or another doubt; inactive = no such curve, though single readings can be large or run the other way.
# By UniProt entry, the sequences of proteins in these tests, tags left out. Where a name states a change or a piece, a line headed by the entry shows the natural chain unless it says otherwise.
# UniProt B2RXH2: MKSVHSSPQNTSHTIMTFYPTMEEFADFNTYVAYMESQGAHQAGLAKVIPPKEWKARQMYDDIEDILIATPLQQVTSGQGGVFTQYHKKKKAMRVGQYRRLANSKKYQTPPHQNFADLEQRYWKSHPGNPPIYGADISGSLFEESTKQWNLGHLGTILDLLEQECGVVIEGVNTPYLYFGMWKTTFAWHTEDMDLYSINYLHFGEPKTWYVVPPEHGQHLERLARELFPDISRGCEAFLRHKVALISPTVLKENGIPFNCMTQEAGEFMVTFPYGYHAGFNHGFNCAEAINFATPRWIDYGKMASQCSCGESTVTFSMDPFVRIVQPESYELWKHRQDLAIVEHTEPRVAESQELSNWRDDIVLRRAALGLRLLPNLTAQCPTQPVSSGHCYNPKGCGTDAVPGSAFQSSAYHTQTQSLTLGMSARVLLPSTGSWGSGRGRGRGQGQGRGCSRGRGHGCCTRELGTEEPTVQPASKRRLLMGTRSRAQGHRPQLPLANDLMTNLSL
# Target: Lysine-specific demethylase 4E (Homo sapiens) (UniProt B2RXH2)
# Assay: qHTS Assay for Inhibitors of Human Jumonji Domain Containing 2E (JMJD2E)
# Details: JMJD2E catalytic domain, FDH-coupled NADH fluorescence (FDH is formaldehyde dehydrogenase); series mostly up to 57.1 µM
# Note: nearly all actives have a fitted effect of over 50% in size.
# Potency is the fitted concentration of half-maximal effect.
row,SMILES,Potency
1,CC1CCC(C(C)C)C(OP(=O)(Nc2ccccn2)c2ccccc2)C1 (configuration not stated),inactive
2,Cc1nn(-c2ccccc2)c2c1P(=O)(N1CCOCC1)N(C)C(c1ccccc1)=N2 (configuration not stated),inactive
3,CN(C)C1(CNC(=O)c2ccc(S(C)(=O)=O)cc2)CCCCC1,inactive
4,O=C(/C=C/c1ccccc1)OC1CN2CCC1CC2 (configuration not stated),inactive
5,O=P1(Nc2ncccn2)COc2ccccc2OC1,inactive
6,Nc1cccc([As](=O)(O)c2ccccc2)c1,inactive
7,Cc1ccc(OCC(=O)OC2CN3CCC2CC3)cc1 (configuration not stated),inactive
8,O=[As](O)(c1cccs1)c1cccs1,inactive
9,O=P1(Nc2ccc(Br)cn2)COc2ccccc2OC1,inactive
10,O=P1(Nc2ccccn2)COc2ccccc2OC1,inactive
11,CN(CCCl)Cc1cc(Cl)c(NC2=NCCN2)c(Cl)c1,inactive
12,CC(C)(C)C(=O)NC(Sc1ncccn1)C(Cl)(Cl)Cl (configuration not stated),inactive
13,Clc1n[nH]nc1-c1nn[nH][15n]1,inactive
14,CC(C)/C=N\N=C(\N)N[N+](=O)[O-],inactive
15,CN(C(=O)Cc1ccc(Cl)c(Cl)c1)[C@@H]1CCCC[C@H]1N1CCCC1,inactive
16,O=[As](O)(c1ccccc1Br)c1ccccc1Br,inactive
17,CN(C(=O)Cc1ccc(Cl)c(Cl)c1)[C@@H]1CC[C@]2(CCCO2)C[C@H]1N1CCCC1,inactive
18,O=C(OC1CN2CCC1CC2)c1ccc(Cl)cc1 (configuration not stated),inactive
19,O=[As](O)(O)c1cccnc1,inactive
20,COc1cc(C(=O)NCC2(N3CCOCC3)CCCCC2)cc(Cl)c1OC(C)C,inactive
21,Cc1cccc(OCC(=O)OC2CN3CCC2CC3)c1 (configuration not stated),inactive
22,O=[As](O)(c1cccc(O)c1)c1cccc(O)c1,inactive
23,Cc1ccc(NCCc2c([N+](=O)[O-])cc([N+](=O)[O-])cc2[N+](=O)[O-])cc1,inactive
24,CCCOP(=S)(Nc1nc(N)cc(=O)[nH]1)OCCC,inactive
25,COc1cc(C2NCCC3(OCCO3)C2(C)C)cc(OC)c1OC (configuration not stated),inactive
26,O=P(Nc1nccs1)(Oc1ccccc1)Oc1ccccc1,inactive

row,SMILES,Potency
1,O=P(Nc1nccs1)(c1ccccc1)c1nc2ccccc2s1 (configuration not stated),active: 7.94 µM
2,CCOP1(=S)c2c(C)nn(CCC#N)c2N=C(c2ccccc2F)N1C (configuration not stated),inactive
3,CS(=O)(=O)c1cc([N+](=O)[O-])c2no[n+]([O-])c2c1,active: 10 µM
4,Nc1ccccc1[As](=O)(O)c1ccccc1,inactive
5,O=C(O)COc1ccc([As](=O)(O)O)cc1[N+](=O)[O-],inactive
6,O=[N+]([O-])CC(O)c1ccc([N+](=O)[O-])cc1 (configuration not stated),inactive
7,NC(=O)Nc1ccc([As](=O)(O)O)cc1,inactive
8,CN(C(=O)Cc1ccccc1)[C@@H]1CC[C@]2(CCCO2)C[C@H]1N1CCCC1,inactive
9,CCOP1(=S)c2c(C)nn(CCC#N)c2N=C(c2ccc(F)cc2)N1C (configuration not stated),inactive
10,O=[N+]([O-])c1ccc2c(c1)nnn2O,inactive
11,O=[As](O)(c1ccc(O)cc1)c1ccccc1O,inactive
12,C[As](=O)(O)c1cccc(C(=O)O)c1,inactive
13,Cc1ccc(OP(=O)(Nc2ccc([N+](=O)[O-])cn2)Oc2ccc(C)cc2)cc1,inactive
14,Cc1ccc2nc3c(c(C)c2c1)CC(C(Cl)Cl)S3 (configuration not stated),inactive
15,ClCCSc1nnc(-c2cccnc2)o1,inactive
16,O=[N+]([O-])c1cc([N+](=O)[O-])c(-c2ccn[nH]2)s1,inactive
17,CC(C)NC(=O)NP(=O)(Oc1ccccc1)Oc1ccccc1,inactive
18,CCN(CC)C(=S)SC(NC=O)C(Cl)(Cl)Cl (configuration not stated),inactive
19,Cc1c2c(nc3ccccc13)SC(C(Cl)Cl)C2 (configuration not stated),inactive
20,Cc1cc(=O)[nH]c(N[N+](=O)[O-])n1,inactive
21,O=C(OC1CN2CCC1CC2)C12CC3CC(CC(C3)C1)C2 (configuration not stated),inactive
22,COc1cc(I)ccc1[As](=O)(O)O,inactive
23,COc1ccc2nc(NP(=O)(c3ccccc3)c3ccccc3)sc2c1,inactive
24,COc1ccc(N/C(=N/P(=O)(N2CCOCC2)N2CCOCC2)N2CCOCC2)cc1,inactive
25,COP1(=S)c2c(C)nn(CCC#N)c2N=C(c2ccc(F)cc2)N1C (configuration not stated),inactive
26,O=C(COc1ccccc1)OC1CN2CCC1CC2 (configuration not stated),inactive

row,SMILES,Potency
1,CCOC(=O)c1ccc(NC(=O)C(C)(CCl)SC)cc1 (configuration not stated),inactive
2,CCC(C)N(CC(C)C)C(=S)SC(NC(C)=O)C(Cl)(Cl)Cl (configuration not stated),inactive
3,CCOC(=O)Nc1ccc([As](=O)(O)O)c(O)c1,inactive
4,CCOC(=O)Nc1cccc([As](=O)(O)O)c1,inactive
5,O=[N+]([O-])c1ccc(Nc2ccc(Oc3ccc([N+](=O)[O-])cc3[N+](=O)[O-])cc2)c([N+](=O)[O-])c1,inactive
6,O=C(Nc1cc([As](=O)(O)O)ccc1O)c1ccccc1,inactive
7,O=[N+]([O-])c1ncn(CCn2ncnc2[N+](=O)[O-])n1,inactive
8,O=C(O)CNc1ccc([As](=O)(O)O)cc1,inactive
9,O=[N+]([O-])c1cccc(NC2=NCC(CBr)S2)c1 (configuration not stated),inactive
10,COc1ccc(C2=NCC(CBr)S2)cc1 (configuration not stated),active: 25.1 µM
11,CCc1nc2c(n1)c1c(non1O)c1c2no[n+]1[O-],inactive
12,O=[N+]([O-])c1cc([N+](=O)[O-])c(CCNc2ccccc2)c([N+](=O)[O-])c1,inactive
13,O=[N+]([O-])c1cccc2n[nH]nc12,inactive
14,CC(=O)N1C2C3N(C(C)=O)C1C1N(C(C)=O)C(C(N1C(C)=O)N3C(C)=O)N2C(C)=O,inactive
15,CCN(/C(=N/P(=O)(N1CCOCC1)N1CCOCC1)N1CCOCC1)c1ccc(OC)cc1,inactive
16,Nc1ccc([As](=O)(O)c2ccc(N)cc2)cc1,inactive
17,CC1CCN(C(=O)Oc2c(Cl)cc(Cl)c3cccnc23)CC1,inactive
18,CN(C)C(=O)OCCc1n(C)cc[n+]1C,inactive
19,CC(C)=N/N=C(\N)N[N+](=O)[O-],inactive
20,Cc1ccc(N/C(=N/P(=O)(N2CCOCC2)N2CCOCC2)N2CCOCC2)cc1,inactive
21,NC(=O)c1cc([N+](=O)[O-])cc([N+](=O)[O-])c1N,inactive
22,CN1CCCC(OC(=O)C(c2ccccc2)c2ccccc2)C1 (configuration not stated),inactive
23,Clc1ccc(Cl)c(NC2=NCC(CBr)S2)c1 (configuration not stated),inactive
24,Cc1ccc(OP(=O)(Nc2nccs2)Oc2ccc(C)cc2)cc1,inactive
25,Cc1c2non([O-])c-2c(C)[n+](=O)[n+]1[O-],inactive

# From PubChem BioAssay AID2147 (National Center for Advancing Translational Sciences (NCATS), 2009)
